Consider 16 compounds from US20110288116A1, “IAP INHIBITORS” (TETRALOGIC PHARMACEUITCAL CORPORATION, priority 2008, published 2011).

The chains behind the UniProt entries cited, without tags or fusion partners. Residues count along the entry.
UniProt P98170, 241-356 limits assumed: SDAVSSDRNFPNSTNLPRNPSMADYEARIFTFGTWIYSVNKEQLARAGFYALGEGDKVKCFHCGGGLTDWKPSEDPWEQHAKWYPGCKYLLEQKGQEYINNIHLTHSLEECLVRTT
UniProt Q13490, 266-343 limits assumed: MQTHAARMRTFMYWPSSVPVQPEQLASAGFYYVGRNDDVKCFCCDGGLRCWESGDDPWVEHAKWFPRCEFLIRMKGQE

One experiment deals with XIAP BIR-3 (Homo sapiens, UniProt P98170). Put plainly: Fluorescence polarization binding to XIAP BIR-3 (competition with AbuRPF-K(5-Fam)-NH2). As to conditions: XIAP BIR-3 (default where cell does not indicate otherwise); reported as range class. The method, then: (§1) The binding affinities of the compounds are reported as a Kd value. Briefly, various concentrations of test peptides were mixed with 5 nM of the fluorescently labeled peptide (i.e., a mutated N-terminal Smac peptide—AbuRPF-K(5-Fam)-NH2) and 40 nM of the BIR3 for 15 min at RT in […] of 0.1M Potassium Phosphate buffer, pH 7.5 containing […] bovine g-globulin. Following incubation, the polarization values (mP) were measured on a Victor2V (available from PerkinElmer Life Sciences) using a 485 nm excitation filter and a 520 nm emission filter. The reported Kd values are supplied as ranges (A=<0.1 μM, B=0.1 μM to C=>1 μM to 10 μM, D=>10 μM) and, unless otherwise indicated, are the Kd for XIAP BIR-3.
On the technique in general: In fluorescence polarisation assays a small probe gives low polarisation when free and higher when bound to something large.

In another experiment the target is cIAP-1 BIR-3 (Homo sapiens, UniProt Q13490). Put plainly: Fluorescence polarization binding to cIAP-1 BIR-3 (competition with AbuRPF-K(5-Fam)-NH2). As to conditions: cells marked (cIAP-1): cIAP-1 BIR-3; reported as range class. How it is done:
as §1

As usually defined, the Kd is the free concentration of one partner at which half of the binding sites on the other are occupied at equilibrium, for simple one-to-one binding. Regarding `CN[C@@H](C)C(=O)N[C@H](C(=O)N1CC[C@@H](O)[C@H]1Cc1c[nH]c2cc(F)ccc12)[C@@H](C)OC`, the Kd on XIAP BIR-3 is below 100 nM. At cIAP-1 BIR-3, `CC[C@H](NC)C(=O)N[C@@H](COC)C(=O)N1CC[C@@H](O)[C@H]1Cc1c(-c2ccc(F)cc2)[nH]c2ccccc12` returned a Kd above 100 nM. The compound `CN[C@@H](CO)C(=O)N[C@H](C(=O)N1CCC[C@H]1Cc1c[nH]c2ncccc12)[C@@H](C)OC` came in with a Kd on XIAP BIR-3 below 100 nM. The compound `CN[C@@H](C)C(=O)N[C@H](C(=O)N1CC[C@H](OC)[C@H]1Cc1cn(C)c2cc(F)ccc12)C(C)(C)C` returned a dissociation constant (Kd) at XIAP BIR-3 above 10000 nM. Consider `CCc1ccc2c(c1)[C@H](C[C@@H]1C[C@H](O)CN1C(=O)[C@@H](NC(=O)[C@H](C)NC)C1CCCCC1)CN2C(C)=O`, for which the Kd on cIAP-1 BIR-3 was below 100 nM. Turning to `CC[C@H](NC)C(=O)N[C@H](C(=O)N1CCC[C@H]1Cc1c[nH]c2ncccc12)C(C)(C)C`, the Kd on XIAP BIR-3 is below 100 nM. At XIAP BIR-3, `CCN[C@@H](C)C(=O)N[C@H](C(=O)N1CC[C@H](OC)[C@H]1Cc1cn(C)c2cc(F)ccc12)C(C)(C)C` showed a Kd above 10000 nM. In turn, `CN[C@@H](C)C(=O)N[C@H](C(=O)N1C[C@@H](O)C[C@H]1C[C@H]1CN(C(C)=O)c2ccccc21)C1CCCCC1` registered an equilibrium dissociation constant (Kd) on cIAP-1 BIR-3 below 100 nM. `CN[C@@H](C)C(=O)N[C@H](C(=O)N1CC[C@H](OC)[C@H]1Cc1c[nH]c2ncccc12)C(C)(C)C`: on XIAP BIR-3, the Kd lay within 1000 to 10000 nM.

Consider `CC[C@H](NC)C(=O)N[C@H](C(=O)N1CC[C@@H](O)[C@H]1Cc1c(-c2ccc(F)cc2)[nH]c2ccccc12)C(C)C`, for which the dissociation constant Kd on cIAP-1 BIR-3 is below 100 nM.

With `CCN[C@@H](C)C(=O)N[C@H](C(=O)N1CCC[C@H]1Cc1c[nH]c2ncccc12)C(C)(C)C`, the Kd on XIAP BIR-3 was below 100 nM. Turning to `CCN[C@@H](CC)C(=O)N[C@H](C(=O)N1CCC[C@H]1Cc1c[nH]c2ncccc12)C(C)(C)C`, the Kd on XIAP BIR-3 was above 100 nM.

At XIAP BIR-3, `CN[C@@H](C)C(=O)N[C@H](C(=O)N1CC[C@H](O)[C@H]1Cc1c[nH]c2cc(F)ccc12)C1CCCCC1` had a Kd below 100 nM. For `CN[C@@H](C)C(=O)N[C@H](C(=O)N1CC[C@@H](OC)[C@H]1Cc1c[nH]c2cc(F)ccc12)[C@@H](C)OC`, the Kd at XIAP BIR-3 is below 100 nM. As for `CC[C@H](NC)C(=O)N[C@H](C(=O)N1CC[C@H](OC)[C@H]1Cc1cn(C)c2cc(F)ccc12)C(C)(C)C`, at XIAP BIR-3, the Kd is above 10000 nM.

In turn, `CCN[C@@H](C)C(=O)N[C@H](C(=O)N1CC[C@H](O)[C@H]1Cc1c[nH]c2cc(F)ccc12)[C@@H](C)OC` returned a dissociation constant Kd at XIAP BIR-3 below 100 nM.
